# Binding of CDR-mutated scFvs to a peptide of the spike HR2 region

From the AlphaSeq antibody data of Engelhart et al. 2022 (doi:10.1038/s41597-022-01779-4), copy in the FLAb collection.

Target: peptide PDVDLGDISGINAS, taken from heptad repeat 2 (HR2) of SARS-CoV-2 spike.

The variants keep the heavy chain, the linker and the frameworks of Ab-95 (scFv order VH, the linker GGGGSGGGGSGGGGS, VL).
VH: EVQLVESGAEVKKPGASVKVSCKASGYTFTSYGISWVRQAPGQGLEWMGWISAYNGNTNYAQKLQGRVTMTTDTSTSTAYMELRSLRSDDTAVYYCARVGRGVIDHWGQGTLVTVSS
VL: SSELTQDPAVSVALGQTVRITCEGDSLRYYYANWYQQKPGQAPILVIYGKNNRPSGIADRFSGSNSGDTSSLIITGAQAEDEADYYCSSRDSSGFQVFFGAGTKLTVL

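Phage display of a naive human antibody library on the peptide gave the parent. AAYL52 was designed without a model: most single CDR substitutions and a random sample of double and triple ones. The scFvs were displayed on barcoded MATa yeast, the peptide on MATalpha yeast. The frequency of each diploid, read from paired DNA barcodes, reflects how well the two displayed proteins bind. Read counts were normalised to the haploid input and turned into Kd by a linear fit to BCL2-family pairs of known affinity, for each replicate. Mating was done three times.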

Each variant is given by its three light chain CDRs, as the data file delimits them; those of the parent are EGDSLRYYYAN, GKNNRPS, SSRDSSGFQVF. Every variant below is changed at Q96 of the VL (sequential numbering). Numbers give log10(Kd / nM), so 0 is 1 nM and 3 is 1 µM. Smaller is tighter. Replicates are averaged; those with no signal do not enter the mean. A pair that was not seen in that replicate is written "nd"; this usually means weak binding, but a binder can also be missed. Background: pairings of library AAYL52 with three empty control strains gave a value in 28% of cases (median 3.91, 5th percentile 2.90). Values in that range, when seen in few replicates, are hard to tell from nonspecific mating.

* EGDSLRYYYMN / GKNNRPS / SSRDSSNFIVF -> 5.13, nd, nd
* EGDDLRYGYAN / GKNNRPS / SSRDSSGFDVF -> 2.42, 1.55, 1.53 (mean 1.83)
* EGDSLRYYMAN / GKNNRPS / SSRDSSGFHVD -> 2.93, 2.33, 2.05 (mean 2.44)
* EGDSLRYYYAN / GKNNYPS / SSRVSSGFLVF -> 4.50, 4.25, nd (mean 4.38)
* EGDSPRYYYAN / GKNNRKS / SSRDSSGFAVF -> nd, 4.46, 3.29 (mean 3.88)
* EGDSTRYYYAN / GKNNRPS / SSHDSSGFVVF -> nd, 3.60, nd
* EGDSLRYYYAN / GKNNRPE / SSRDFSGFRVF -> 2.82, 2.81, 2.04 (mean 2.56)
* EGDSLRYYYAN / GKNNRPS / SSRDSSGFIPF -> 3.24, 2.89, 2.80 (mean 2.97)
* EGDSLRYYYAN / GKNNRPS / SFRDSSVFEVF -> 4.05, nd, nd
* EGDSLRYYYFN / GKNNRPS / SSPDSSGFKVF -> nd, nd, nd
* EGDKLRYYYAN / GKNNRPE / SSRDSSGFTVF -> nd, nd, nd
* EGDSLRYYYAN / GKKNRPS / SSRDSSGDFVF -> 3.63, nd, 4.06 (mean 3.85)
* EGDSLRYYYAS / GKNNRHS / SSRDSSGFGVF -> nd, 4.12, nd
* EGDSLRYKYNN / GKNNRPS / SSRDSSGFFVF -> 3.35, 3.53, 3.12 (mean 3.33)
* EGDSLRYYYAN / GKNNRPS / ISRDRSGFDVF -> nd, nd, nd
* EGDSLCYSYAN / GKNNRPS / SSRDSSGFGVF -> 1.37, 1.59, 1.04 (mean 1.33)
* EGDSLRYYFAN / GKNNRPS / SMRDSSGFEVF -> 4.55, 5.68, nd (mean 5.12)
* EGDSLRYYYAM / GKRNRPS / SSRDSSGFNVF -> 3.64, 3.13, nd (mean 3.39)
* EGDSLRYQYYN / GKNNRPS / SSRDSSGFNVF -> 2.36, 2.66, 1.90 (mean 2.30)
* EGPSLRYYYAN / GKNNRPS / SSRDSSGQNVF -> 2.29, 2.04, 1.81 (mean 2.05)
* EGISLRYRYAN / GKNNRPS / SSRDSSGFFVF -> 2.65, 2.31, 2.29 (mean 2.42)
* EGDSLRYYYAN / GKNNRPS / NSRDSSSFMVF -> 2.92, 3.76, nd (mean 3.34)
* EGDSLRYFYAN / GKNNRPS / SSRDSIGFAVF -> 4.70, nd, nd
* EGDSLRYYYLN / GKNNRYS / SSRDSSGFPVF -> 2.95, 4.55, nd (mean 3.75)
* EGDSKRYYYAN / MKNNRPS / SSRDSSGFLVF -> 3.16, nd, nd
* EGDSLRYYYAN / GNNNRPS / SSRDSSGSSVF -> 2.72, 2.74, 2.76 (mean 2.74)
* EGDSLRYYYAN / GKNNPPS / SSRNSSGFHVF -> 3.69, 4.23, nd (mean 3.96)
* EGISLRYYYAN / PKNNRPS / SSRDSSGFMVF -> 4.59, nd, nd
* EGDSLRYYYAN / GKNNFPS / KSRDSSGFPVF -> 3.90, nd, nd
* RADSLRYYYAN / GKNNRPS / SSRDSSGFCVF -> 3.55, 3.25, 2.56 (mean 3.12)

Again, the first 2 entries without any signal:

{"CDR-L1": "EGDSLRYYYFN", "CDR-L2": "GKNNRPS", "CDR-L3": "SSPDSSGFKVF", "log10 Kd (nM) by replicate": "nd, nd, nd", "mean, log10 nM": "nd"}
{"CDR-L1": "EGDKLRYYYAN", "CDR-L2": "GKNNRPE", "CDR-L3": "SSRDSSGFTVF", "log10 Kd (nM) by replicate": "nd, nd, nd", "mean, log10 nM": "nd"}

In this assay the parent's reference entry averaged 2.31; its copy inside this library read 2.25.